Measurements published in EP0318056A2, “Novel antibiotics and process for preparing the same” (MEIJI SEIKA KAISHA LTD., priority 1987, dated 1989).

Legend:
L-1210/CPR = assay: Cytotoxicity on tumor cells; type: cell-based; settings: mouse leukemia resistant to Cisplatin, 37°C, 72 hours, 5% CO₂, probit method
P-388/ADR = assay: Cytotoxicity on tumor cells; type: cell-based; settings: mouse leukemia resistant to multiple drugs, 37°C, 72 hours, 5% CO₂, probit method

COC(=O)C1(C)Nc2c(O)cc3c(c2C1=O)C(CO)CN3C(=O)c1cc2cc(OC)c(OC)c(OC)c2[nH]1 (centres unmarked)
IC₅₀ (L-1210/CPR): 7.9 µg/mL | IC₅₀ (P-388/ADR): 14.5 µg/mL
